Test system: Toxoplasma gondii strains expressing FLUC
Experiment: microbe, parasite or virus in culture
Assay type: cell-based
Protocol: The ability of bicyclic azetidines to inhibit different strains of T. gondii was tested using a series of firefly luciferase (FLUC)-tagged lines. […] A similar strategy was utilized to derive FLUC expressing lines from additional T. gondii strains MAS (type 4) and FOU (type 6).

What does the source list for `COc1ccc(NC(=O)N2CCCCN3[C@H](CN(C)C)[C@H](c4ccc(C#Cc5ccccc5)cc4)[C@@H]3C2)cc1` [Compound 15, (8R,9S,10S)-10-((dimethylamino)methyl)-N-(4-methoxyphenyl)-9-(4-(phenylethynyl)phenyl)-1,6-diazabicyclo[6.2.0]decane-6-carboxamide]?
EC50 (Toxoplasma gondii, genotype 3, read-out: Average EC50 ± S.D.): 34.3 nM; EC50 values of all strains relative to each other and historical standards (strains ME49, CTG, MAS, RUB, FOU, VAND): ≤ 2 fold
